Structures can show the parent of a compound that is named as a salt.
Molecular target: PRMT1 (Homo sapiens, UniProt Q99873)
Assay: Methyltransferase inhibition assay, PRMT1
Assay type: biochemical
Set-up: purchased BPS Biosciences (San Diego, Calif.)

Chains of the proteins cited; added tags and fusions are not shown.
UniProt Q99873, whole entry: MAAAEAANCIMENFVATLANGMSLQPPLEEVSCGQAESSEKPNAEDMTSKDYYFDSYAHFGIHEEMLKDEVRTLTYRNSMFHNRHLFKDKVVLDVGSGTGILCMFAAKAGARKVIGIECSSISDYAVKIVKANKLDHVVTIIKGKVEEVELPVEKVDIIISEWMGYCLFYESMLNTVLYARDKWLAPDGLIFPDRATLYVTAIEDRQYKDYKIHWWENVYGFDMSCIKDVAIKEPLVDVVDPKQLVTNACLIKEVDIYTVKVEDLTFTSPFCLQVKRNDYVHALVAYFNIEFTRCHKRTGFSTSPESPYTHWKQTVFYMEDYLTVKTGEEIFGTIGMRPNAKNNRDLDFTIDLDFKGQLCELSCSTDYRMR

Structure (SMILES)	IC50 [µM]
CNc1ncnc2c1ncn2[C@@H]1O[C@H](CN(CCI)CCC[C@H](N)C(=O)O)C(O)[C@@H]1O (stereo partly drawn) [Compound 5, N^δ-[5′-(N^6-Methyl-adenosyl)]-N^δ-(2-iodoethyl)-(S)-2,5-diaminopentanoic acid hydrochloride]	> 100
Nc1ncnc2c1ncn2[C@@H]1O[C@H](CN(CCI)CC[C@H](N)C(=O)O)C(O)[C@@H]1O (stereo partly drawn) [Compound 3, N^γ-(5′-Adenosyl)-N^γ-(2-iodoethyl)-(S)-2,4-diaminobutyric acid hydrochloride]	22
